In one assay the target is T1, HsTyrRS (Homo sapiens, UniProt P54577).
T1 sequence (P54577 1-528): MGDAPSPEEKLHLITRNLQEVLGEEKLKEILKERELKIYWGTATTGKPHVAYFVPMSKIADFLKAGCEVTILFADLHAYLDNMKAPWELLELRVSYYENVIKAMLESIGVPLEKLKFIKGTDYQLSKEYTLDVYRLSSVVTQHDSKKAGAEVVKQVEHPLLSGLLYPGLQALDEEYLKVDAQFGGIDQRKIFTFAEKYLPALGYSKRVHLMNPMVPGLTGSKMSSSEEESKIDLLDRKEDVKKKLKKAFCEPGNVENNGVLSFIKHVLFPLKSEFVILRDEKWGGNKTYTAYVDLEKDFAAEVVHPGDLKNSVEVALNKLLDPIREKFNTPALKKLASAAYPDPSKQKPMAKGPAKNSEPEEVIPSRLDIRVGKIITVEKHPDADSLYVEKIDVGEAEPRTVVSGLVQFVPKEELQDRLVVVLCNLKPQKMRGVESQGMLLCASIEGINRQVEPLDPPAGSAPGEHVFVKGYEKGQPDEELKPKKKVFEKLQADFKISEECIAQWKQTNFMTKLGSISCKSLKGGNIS
The assay can be described thus: Differential scanning fluorimetry (DSF) of HsTyrRS. The assay is classed as binding. As for the experimental part:
The effect on ML471 and analogues on the thermal stability of TyrRS enzymes was assayed as previously described. […] SYPRO Orange (Sigma-Aldrich; 5,000X concentrate in DMSO) was added to the reaction mixture at a final concentration of 5X. 25 μL of the sample was added into each well of a 96-well qPCR plate (Applied Biosystems). The plate was sealed and analysed using StepOnePlus Real-Time PCR system (Applied Biosystems). The samples were heated from 20°C to 90°C with a 1% continuous gradient. The thermal unfolding curve was plotted as the first derivative curve of the raw fluorescence values. The melting temperature (Tm), defined as the peak of the first derivative curve, was used to assess the thermal stability of protein-ligand complexes.
(DSF heats the sample and reads unfolding from a dye or from intrinsic fluorescence.)

Assay [1] addresses T2, Atg7 (autophagy-related protein-7) (Homo sapiens, UniProt O95352).
T2 sequence (O95352 1-703): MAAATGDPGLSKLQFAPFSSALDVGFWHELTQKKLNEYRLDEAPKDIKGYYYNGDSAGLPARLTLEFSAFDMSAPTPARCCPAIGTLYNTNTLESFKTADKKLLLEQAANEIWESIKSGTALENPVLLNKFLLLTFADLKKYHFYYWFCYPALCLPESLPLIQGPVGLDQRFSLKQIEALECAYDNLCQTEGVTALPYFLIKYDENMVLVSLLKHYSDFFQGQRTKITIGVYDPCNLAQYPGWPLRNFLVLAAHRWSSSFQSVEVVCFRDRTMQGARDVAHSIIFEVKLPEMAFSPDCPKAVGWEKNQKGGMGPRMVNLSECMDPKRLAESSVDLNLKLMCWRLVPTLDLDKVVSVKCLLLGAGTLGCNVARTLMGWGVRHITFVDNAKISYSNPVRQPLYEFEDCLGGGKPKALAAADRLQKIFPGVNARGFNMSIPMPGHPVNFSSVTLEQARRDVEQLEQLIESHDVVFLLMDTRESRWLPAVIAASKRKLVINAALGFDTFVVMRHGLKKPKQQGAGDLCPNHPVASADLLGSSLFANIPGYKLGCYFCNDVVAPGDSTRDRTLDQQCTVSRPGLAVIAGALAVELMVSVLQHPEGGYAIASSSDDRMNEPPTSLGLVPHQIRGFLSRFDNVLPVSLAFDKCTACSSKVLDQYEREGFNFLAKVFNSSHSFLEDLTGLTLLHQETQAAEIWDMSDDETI
Also noted: method as in PMID 35653481. Particulars: read-out: ATG7 IC50 HTRF RH-GABARAP; ref [16]; cited from earlier work.

Assay [2] deals with T3, NAE (NEDD8-activating enzyme) (Homo sapiens, UniProt Q8TBC4).
T3 sequence (Q8TBC4 1-463): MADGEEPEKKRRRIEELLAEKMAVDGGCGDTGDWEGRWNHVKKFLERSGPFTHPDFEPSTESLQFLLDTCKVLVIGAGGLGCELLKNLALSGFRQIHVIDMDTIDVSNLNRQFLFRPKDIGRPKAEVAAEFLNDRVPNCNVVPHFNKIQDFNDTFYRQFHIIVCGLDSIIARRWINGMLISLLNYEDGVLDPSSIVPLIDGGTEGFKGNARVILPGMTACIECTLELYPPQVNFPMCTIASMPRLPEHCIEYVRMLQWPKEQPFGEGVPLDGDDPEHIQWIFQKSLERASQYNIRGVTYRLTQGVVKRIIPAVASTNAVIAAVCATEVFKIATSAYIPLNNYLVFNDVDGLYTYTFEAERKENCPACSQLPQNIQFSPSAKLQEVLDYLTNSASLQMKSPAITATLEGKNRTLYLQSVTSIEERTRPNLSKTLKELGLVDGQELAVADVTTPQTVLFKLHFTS
T3 sequence (Q13564 1-534 partner): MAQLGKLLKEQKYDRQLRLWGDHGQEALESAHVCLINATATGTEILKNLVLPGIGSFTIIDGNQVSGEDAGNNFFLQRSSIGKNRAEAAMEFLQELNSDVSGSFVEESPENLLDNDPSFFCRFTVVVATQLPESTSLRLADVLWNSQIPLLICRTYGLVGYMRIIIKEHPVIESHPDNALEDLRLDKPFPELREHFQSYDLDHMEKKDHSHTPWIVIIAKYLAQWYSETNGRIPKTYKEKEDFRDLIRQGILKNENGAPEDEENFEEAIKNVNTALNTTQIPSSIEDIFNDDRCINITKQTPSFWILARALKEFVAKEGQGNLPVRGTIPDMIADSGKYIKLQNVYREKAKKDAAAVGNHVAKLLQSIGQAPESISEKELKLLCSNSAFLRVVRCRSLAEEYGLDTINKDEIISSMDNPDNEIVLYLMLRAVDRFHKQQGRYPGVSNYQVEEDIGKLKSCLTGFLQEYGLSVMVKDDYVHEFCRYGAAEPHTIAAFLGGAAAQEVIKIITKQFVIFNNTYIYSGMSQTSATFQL
The note with it: read-out: NAE IC50 HTRF; ref [16]; cited from earlier work.

Assay [3] has as its target T4, UAE (ubiquitin activating enzyme) (Homo sapiens, UniProt P22314).
T4 sequence (P22314 1-1058): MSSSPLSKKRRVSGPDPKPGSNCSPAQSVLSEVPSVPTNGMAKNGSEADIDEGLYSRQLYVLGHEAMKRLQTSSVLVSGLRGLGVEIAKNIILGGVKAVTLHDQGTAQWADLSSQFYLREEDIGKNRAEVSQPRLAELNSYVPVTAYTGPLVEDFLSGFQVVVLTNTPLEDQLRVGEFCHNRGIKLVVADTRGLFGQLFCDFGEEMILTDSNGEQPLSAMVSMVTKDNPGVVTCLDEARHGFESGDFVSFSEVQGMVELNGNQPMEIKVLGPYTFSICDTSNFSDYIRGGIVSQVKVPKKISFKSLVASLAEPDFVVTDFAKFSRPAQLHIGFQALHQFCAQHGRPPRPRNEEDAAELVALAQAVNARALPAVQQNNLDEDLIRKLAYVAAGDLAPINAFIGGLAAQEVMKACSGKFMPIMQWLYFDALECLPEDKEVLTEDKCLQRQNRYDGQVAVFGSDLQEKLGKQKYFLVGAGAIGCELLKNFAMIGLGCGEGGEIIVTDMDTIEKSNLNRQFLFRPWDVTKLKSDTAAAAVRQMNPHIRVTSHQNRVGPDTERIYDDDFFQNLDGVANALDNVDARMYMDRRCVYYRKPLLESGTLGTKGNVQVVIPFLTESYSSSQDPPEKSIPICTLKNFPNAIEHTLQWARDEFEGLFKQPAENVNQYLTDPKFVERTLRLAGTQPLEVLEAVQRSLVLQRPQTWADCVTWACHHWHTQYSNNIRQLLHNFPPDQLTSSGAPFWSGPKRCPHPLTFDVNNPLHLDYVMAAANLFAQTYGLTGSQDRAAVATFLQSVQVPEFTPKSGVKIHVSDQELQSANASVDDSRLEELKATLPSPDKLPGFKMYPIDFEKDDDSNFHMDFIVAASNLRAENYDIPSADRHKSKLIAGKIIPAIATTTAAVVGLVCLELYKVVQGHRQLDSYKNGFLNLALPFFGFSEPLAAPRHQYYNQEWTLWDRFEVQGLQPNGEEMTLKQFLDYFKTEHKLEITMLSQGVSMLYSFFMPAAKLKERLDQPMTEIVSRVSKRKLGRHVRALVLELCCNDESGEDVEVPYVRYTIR
Particulars: read-out: UAE IC50 HTRF; ref [16]; cited from earlier work. Background: In TR-FRET formats the signal depends on donor and acceptor labels being close together.

In assay [4] the target is T5, SAE (SUMO-activating enzyme) (Homo sapiens, UniProt Q9UBT2).
T5 sequence (Q9UBT2 1-640): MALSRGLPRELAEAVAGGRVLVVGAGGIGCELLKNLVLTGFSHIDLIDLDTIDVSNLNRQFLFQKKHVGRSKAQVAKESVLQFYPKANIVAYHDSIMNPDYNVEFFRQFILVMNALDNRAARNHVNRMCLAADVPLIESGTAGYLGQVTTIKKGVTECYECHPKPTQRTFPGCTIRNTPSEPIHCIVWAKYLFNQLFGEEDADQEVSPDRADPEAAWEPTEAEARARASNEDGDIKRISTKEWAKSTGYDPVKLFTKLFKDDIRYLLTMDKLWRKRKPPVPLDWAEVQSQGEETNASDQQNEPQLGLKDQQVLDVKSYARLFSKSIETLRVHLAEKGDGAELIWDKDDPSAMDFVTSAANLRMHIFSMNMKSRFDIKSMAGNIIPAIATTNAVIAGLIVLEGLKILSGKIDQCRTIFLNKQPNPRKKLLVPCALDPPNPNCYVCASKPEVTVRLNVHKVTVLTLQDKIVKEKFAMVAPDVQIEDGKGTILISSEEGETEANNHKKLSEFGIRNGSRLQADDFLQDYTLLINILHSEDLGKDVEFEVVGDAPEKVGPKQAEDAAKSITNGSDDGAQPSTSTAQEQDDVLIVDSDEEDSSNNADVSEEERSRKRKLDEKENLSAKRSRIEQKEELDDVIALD
T5 sequence (Q9UBE0 1-346 partner): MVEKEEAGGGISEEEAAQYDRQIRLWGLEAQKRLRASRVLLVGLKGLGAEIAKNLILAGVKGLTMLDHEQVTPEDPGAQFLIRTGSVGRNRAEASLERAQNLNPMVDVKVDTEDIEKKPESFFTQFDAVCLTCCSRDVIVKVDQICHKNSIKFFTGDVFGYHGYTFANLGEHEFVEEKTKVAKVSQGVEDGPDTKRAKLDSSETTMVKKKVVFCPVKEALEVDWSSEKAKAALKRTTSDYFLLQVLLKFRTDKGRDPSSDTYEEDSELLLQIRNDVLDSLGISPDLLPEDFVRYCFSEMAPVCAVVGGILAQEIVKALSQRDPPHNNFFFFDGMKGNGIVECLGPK
The note with it: read-out: SAE IC50 HTRF; ref [16]; cited from earlier work.

For `Nc1ncnc2c1ncn2[C@@H]1O[C@H](COS(N)(=O)=O)[C@@H](O)[C@H]1O` [AMS, adenosine 5’-monosulfamate, reference compound], the “HsTyrRS binding (DSF) Delta Tm” value at HsTyrRS (200 μM sulfamate, ATP, tyrosine, yeast tRNA, 37°C 4 h) was 9.1 ± 0.1 °C. Moreover, the Kd on HsTyrRS (estimated from DSF with an irreversible thermal unfolding model, read-out: HsTyrRS binding (DSF) apparent KD) was 8 nM. Also, on HsTyrRS (with all substrates), the “thermal stabilisation of recombinant HsTyrRS (in words)” value is on record as “substantial thermal stabilization”. Besides, at HsTyrRS (with sulfamate, ATP, tyrosine and tRNA, apo 49.0 ± 0.2), the “HsTyrRS Tm” value came out at 58.2 ± 0.3 °C. The half-inhibitory concentration (IC50) was 410000 ± 20000 nM in assay [1], 6 ± 1 nM in assay [2], 6 ± 3 nM in assay [3] and 6 ± 2 nM in assay [4].

As usually defined, the IC50 is the concentration that inhibits the measured activity by half.

The values are drawn from article PMC11671014, “A potent and selective reaction hijacking inhibitor of Plasmodium falciparum tyrosine tRNA synthetase exhibits single dose oral efficacy in vivo” (PLOS Pathogens, 2024).
